From patent publication US20120258873A1, “REDUCTION OF 2,3-DIHYDROXY-2-METHYL BUTYRATE (DHMB) IN BUTANOL PRODUCTION” (priority 2011, published 2012) come the findings set out here.

Amino acid sequences for entries named in this document (tags omitted).
UniProt Q02138, whole entry A270E/T303I/K323Q: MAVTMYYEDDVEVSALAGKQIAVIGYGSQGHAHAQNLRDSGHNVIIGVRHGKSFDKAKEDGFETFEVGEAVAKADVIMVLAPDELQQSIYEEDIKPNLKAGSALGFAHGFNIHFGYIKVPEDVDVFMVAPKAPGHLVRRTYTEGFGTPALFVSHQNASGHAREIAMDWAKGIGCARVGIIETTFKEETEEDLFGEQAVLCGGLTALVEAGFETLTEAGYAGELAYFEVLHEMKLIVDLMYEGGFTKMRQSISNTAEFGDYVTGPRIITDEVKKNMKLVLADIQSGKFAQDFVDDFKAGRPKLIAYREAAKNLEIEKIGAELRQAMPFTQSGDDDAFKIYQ

The structures appear in SMILES notation.

The experiment concerns the target KARI from Lactococcus lactis (Lactococcus lactis subsp. lactis, UniProt Q02138, A270E/K323Q/T303I). Briefly: biochemical.

Usually Ki stands for a dissociation constant, usually derived from enzyme kinetics or from competition with a known ligand. As for `C[C@H](O)[C@](C)(O)C(=O)O` [Fast DHMB, 2,3-dihydroxy-2-methyl butyrate], affinity was put at a Ki of 2800 µM. The value for `C[C@@H](O)[C@](C)(O)C(=O)O` [Slow DHMB, 2,3-dihydroxy-2-methyl butyrate] was 2300 µM.
